From PMC11452662, “Biofunctionalized dissolvable hydrogel microbeads enable efficient characterization of native protein complexes” (Nature Communications, 2024)

Protein sequences, listed by entry. Tags and fused reporters are not part of them.
UniProt P69905, whole entry, chain 1 of 2: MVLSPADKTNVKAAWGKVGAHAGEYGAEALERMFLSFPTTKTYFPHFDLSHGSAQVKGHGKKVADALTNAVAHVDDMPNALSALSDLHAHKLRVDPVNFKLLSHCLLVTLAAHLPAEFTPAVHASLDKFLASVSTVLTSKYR

Biological target: Hemoglobin bait conjugated to SNAP beads (UniProt P69905)
Experiment: native MS; tandem MS with increasing collisional energy of the bait-target complex Hp(2)Hb(4)Ab(1), Hb as bait
Conditions: scale: Hb subunits per Hp protomer

stoichiometry N: 2
Substance: Hp of the Hp(2)Ab(1) complex
